# Apparent affinities of Ab-14 variants for a coronavirus HR2 peptide

Values reported by Engelhart et al. 2022, doi:10.1038/s41597-022-01779-4 (FLAb copy).

Target: peptide PDVDLGDISGINAS, taken from heptad repeat 2 (HR2) of SARS-CoV-2 spike.

Ab-14 is the parent antibody, in scFv form: VH, then the linker GGGGSGGGGSGGGGS, then VL. The heavy chain is unchanged in all variants.
VH: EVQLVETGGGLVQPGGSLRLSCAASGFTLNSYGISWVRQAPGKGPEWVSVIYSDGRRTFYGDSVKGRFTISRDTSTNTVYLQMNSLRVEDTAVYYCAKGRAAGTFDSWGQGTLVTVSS
VL: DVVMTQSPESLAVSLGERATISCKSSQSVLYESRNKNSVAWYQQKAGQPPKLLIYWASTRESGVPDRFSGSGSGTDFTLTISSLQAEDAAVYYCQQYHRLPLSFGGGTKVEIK

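The starting antibody came from a phage panning campaign against this peptide. Variants in AAYL50 differ from the parent at up to three CDR positions; double and triple changes were sampled at random. The scFvs were displayed on barcoded MATa yeast, the peptide on MATalpha yeast. The frequency of each diploid, read from paired DNA barcodes, reflects how well the two displayed proteins bind. A regression on co-assayed BCL2-family reference pairs converts the normalised counts of each replicate to an apparent Kd. Mating was done three times.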

Each variant is given by its three light chain CDRs, as the data file delimits them; those of the parent are KSSQSVLYESRNKNSVA, WASTRES, QQYHRLPLS. Every variant below is changed at Y31 of the VL (sequential numbering). Scale: log10 of Kd in nM, estimated from mating counts; low values are strong binders. Averages over replicates are reported, and they cover detected replicates only. A pair that was not seen in that replicate is written "ND"; this usually means weak binding, but a binder can also be missed. As a blank, each scFv also met three strains without target: over library AAYL50, 18% of these pairings were detected, typically at 4.19 and seldom below 2.99. Also given: how often the same scFv was detected with the empty control strains, with their mean in brackets.

CDR-L1,CDR-L2,CDR-L3,"replicates, log10 nM","mean, log10 nM",signal with controls
KSMQSVLWESRNKNSVA,WASTRES,QQNHRLPLS,3.98 / ND / ND,3.98,3/9 (3.85)
KHSQSVLHESRNKNSVA,WASTRES,MQYHRLPLS,ND / ND / ND,ND,2/9 (4.45)
KSSQSVLCESRNKNSVA,WASTRES,QQYHRLPCS,ND / ND / ND,ND,0/9
KSSQSVLFESRNKNSVA,WASTREE,QQYHRLPKS,1.94 / 1.81 / 2.04,1.93,2/9 (4.82)
KASQSVLVESRNKNSVA,WASTRES,QQYHRLPLR,1.20 / 1.38 / 1.51,1.36,2/9 (5.47)
KSSQLVLPESRNKNSVA,WASTREQ,QQYHRLPLS,0.44 / 0.66 / 0.53,0.54,2/9 (4.08)
KSSQSVLQESRNKNSFA,WASTRES,QQYHRLQLS,ND / 3.03 / ND,3.03,0/9
KSSQSVLEESRNKNSNA,WASTRES,QQYHRLPLS,ND / 3.64 / ND,3.64,1/9 (4.34)
KSSQSVLQESCNKNSVA,WASTRES,QQYHRLPLS,0.85 / 0.91 / 0.79,0.85,1/9 (4.06)
KSSQSVLPESRNKNSVA,WASTRTS,QQYNRLPLS,0.92 / 1.07 / 0.99,0.99,3/9 (4.66)
KSSQSVLKESRNKNSVA,WASWRES,QQYHRWPLS,ND / ND / ND,ND,0/9
KSCQSVLCESRNKNSVA,WASTREL,QQYHRLPLS,2.20 / 1.86 / 2.18,2.08,3/9 (4.46)
KSSQKVLNESRQKNSVA,WASTRES,QQYHRLPLS,ND / ND / ND,ND,0/9
KSSQDVLWESREKNSVA,WASTRES,QQYHRLPLS,ND / ND / ND,ND,0/9
KSSQSVLLESRNKNKVA,WASTCES,QQYHRLPLS,ND / ND / ND,ND,1/9 (4.55)
KSSQSVLSENRNFNSVA,WASTRES,QQYHRLPLS,-0.03 / 0.34 / 0.24,0.18,2/9 (4.55)
KSSQSVLSESRNKNSVA,WASTRES,QQYMRLPLS,ND / 3.82 / 3.81,3.82,2/9 (4.73)
KSSQSNLKESRNKNSVA,WASTRES,QQYSRLPLS,0.77 / 1.03 / 1.01,0.94,5/9 (4.92)
KSSQSVLKESRNKNSVA,WASTMEQ,QQYHRLPLS,2.59 / 2.83 / 3.21,2.88,3/9 (4.35)
KSSQSVLIESRNKNQAA,WASTRES,QQYHRLPLS,ND / ND / ND,ND,1/9 (3.95)
KSSQSVLRESRNKNSVA,WMSTRES,QQYIRLPLS,ND / ND / 3.54,3.54,0/9
KSSQSVLVESRNKNSVA,WASTLES,QQYHRLPLS,ND / 3.93 / ND,3.93,0/9
GSSQSVLMESRNKNSVA,WASTRES,PQYHRLPLS,ND / 3.59 / 5.30,4.45,2/9 (3.61)
KSSQSVLRESRNKNSVA,WASLRES,QQYHDLPLS,0.05 / 0.27 / 0.25,0.19,2/9 (4.54)
KSSQSVLSESRNKNSVA,WASTRES,QYYHRLPLK,1.16 / 1.28 / 1.01,1.15,1/9 (4.09)
KSSWSVLMESRNKNVVA,WASTRES,QQYHRLPLS,1.53 / 1.59 / 1.64,1.58,0/9
KSSQSVLTEERNKNSRA,WASTRES,QQYHRLPLS,ND / ND / ND,ND,1/9 (3.34)
KSSQSVLRESRNKNSVT,WASHRES,QQYHRLPLS,ND / ND / ND,ND,0/9
KSSQSVLMESRNKNSVA,WASTRES,QQYQHLPLS,1.08 / 1.18 / 1.54,1.26,0/9
KSSQSVLGESRNKNYVA,WACTRES,QQYHRLPLS,ND / 4.45 / ND,4.45,1/9 (3.95)
KSSQSVLHESRNKNSVA,WYSTRTS,QQYHRLPLS,ND / ND / ND,ND,0/9
KSSQSVLWSSRNKNSVA,WANTRES,QQYHRLPLS,0.89 / 1.01 / 0.91,0.93,0/9
KSSISVLFESRNKNSEA,WASTRES,QQYHRLPLS,ND / 3.39 / ND,3.39,5/9 (4.13)
KSSQSVLDESRNKNSLA,WASTRES,QQYHRLPPS,0.76 / 0.91 / 0.72,0.80,1/9 (2.91)
KSSQTVLDESLNKNSVA,WASTRES,QQYHRLPLS,0.13 / 0.36 / 0.21,0.23,7/9 (4.91)
KSSQSVLTESRNVNSVA,WASTRES,QQYHRLNLS,2.38 / 2.51 / 2.94,2.61,1/9 (4.25)
KSSQSVLNESRNKNSVA,WASTRES,QQYHRLPLS,0.19 / 0.48 / 0.32,0.33,0/9
KSSQSVLMESRNKNSVA,WASTKES,QQYHRLELS,1.38 / 1.53 / 1.45,1.45,2/9 (4.11)
KSSQSVLHESRNKNSVA,WASHHES,QQYHRLPLS,2.19 / 2.28 / 2.69,2.39,1/9 (4.88)
KSSQSVLAESRNKNIVA,WASTRES,QQYHRLPLS,ND / 3.22 / ND,3.22,0/9
NSSQSVLPESRNKNSVA,WFSTRES,QQYHRLPLS,ND / ND / ND,ND,0/9
KSSQSVLRESRNKNSVA,WASLTES,QQYHRLPLS,5.76 / 3.36 / ND,4.56,1/9 (4.10)
KSSQSVLKESRNFNDVA,WASTRES,QQYHRLPLS,0.92 / 1.00 / 0.95,0.96,5/9 (4.89)
KSSQSVLCESRNKNSVA,WASTRES,QQYHRMPLS,1.89 / 1.50 / 1.96,1.78,0/9
KSSQSVLMESRNKWSVA,WASTRES,QQYYRLPLS,1.63 / 1.71 / 1.64,1.66,3/9 (4.08)

Extract of 3 entries:

CDR-L1	CDR-L2	CDR-L3	replicates, log10 nM	mean, log10 nM	signal with controls
KSSQSVLWSSRNKNSVA	WANTRES	QQYHRLPLS	0.89 / 1.01 / 0.91	0.93	0/9
KSSQSVLKESRNFNDVA	WASTRES	QQYHRLPLS	0.92 / 1.00 / 0.95	0.96	5/9 (4.89)
KSSQSVLQESCNKNSVA	WASTRES	QQYHRLPLS	0.85 / 0.91 / 0.79	0.85	1/9 (4.06)

Parent in this assay: reference entry 0.65, copy in this library 1.68.